The target of assay [1] is T1, hCRTH2 receptor (Homo sapiens (Human), UniProt Q9Y5Y4). Nature of the assay: Radioligand displacement assay in presence of human serum albumin (HSA). Conditions: 3H-PGD2 2.5 nM, HEK293-hCRTH2 membrane fragments, Binding-Buffer-HSA with 0.5% human serum albumin instead of 0.1% BSA. How it is done:
(§1) First, recombinant HEK293-hCRTH2 cells were detached from culture plates into 5 ml buffer A/plate (Buffer A: 5 mM Tris, 1 mM MgCl2-6H2O pH=7.4) using a rubber policeman. Cells were then transferred into centrifugation tubes and centrifuged for 5 min at 400 g. The cell pellet was resuspended in the same buffer and tubes were frozen at −80° C. Cells were thawed and membrane fragments were generated by homogenization using a polytron homogenizer (30 seconds). The membrane fragments were then centrifuged at 3000 g for 20 minutes and resuspended in buffer C (Buffer C: 75 mM Tris, 25 mM MgCl2, 250 mM Saccharose pH 7.4). Aliquots of membrane fragments were stored at −20° C.
(§2) Binding assay was performed in a final assay volume of 250 μl. First, 25 μl of test compound, previously diluted in Binding-Buffer (Binding-Buffer: 50 mM Tris-Base, 100 mM NaCl, 1 mM EDTA, 0.1% BSA (protease free), 0.01% NaN3, 10 mM MnCl2 pH 7.0) was placed into each well. After addition of 75 μl Binding-Buffer, 50 μl of the radioligand ^3H-PGD2 (at 2.5 nM (220.000 dpm/well) from ANAWA ART0662) was added to each well. Binding assay was started by addition of 100 μl CRTH2 membrane fragments, reaching a final concentration of 20 μg/well. For non-specific binding, PGD2 was added to the reaction mixture to 10 mM final concentration. This assay mix was incubated for 90 minutes at room temperature and then filtered through a GF/C filter 96-well plate which was pre-soaked for 3 hours in 0.5% polyethyleneimine (PEI). The filter-wells were washed three times with ice cold Binding-Buffer. Then, 40 μl of Microscint-40 (Packard) was added to each well and the retained radioactivity quantified in a Topcount (Packard).
Radioligand displacement assay in presence of human serum albumin (HSA) was performed as described above, with following modifications. Binding-Buffer-HSA: Binding-buffer+0.5% Sigma Albumin from Human serum A1887 (instead of 0.1% BSA). A volume of 25 μl test compound, previously diluted in Binding-Buffer-HSA was placed into each well. […]
(In general: In a radioligand displacement assay an active substance lowers the binding of a labelled ligand.)

Protein sequences, listed by entry. Tags and fused reporters are not part of them. Lines headed by an entry give the natural chain unless they say otherwise; changes in a name come on top.
UniProt Q9Y5Y4: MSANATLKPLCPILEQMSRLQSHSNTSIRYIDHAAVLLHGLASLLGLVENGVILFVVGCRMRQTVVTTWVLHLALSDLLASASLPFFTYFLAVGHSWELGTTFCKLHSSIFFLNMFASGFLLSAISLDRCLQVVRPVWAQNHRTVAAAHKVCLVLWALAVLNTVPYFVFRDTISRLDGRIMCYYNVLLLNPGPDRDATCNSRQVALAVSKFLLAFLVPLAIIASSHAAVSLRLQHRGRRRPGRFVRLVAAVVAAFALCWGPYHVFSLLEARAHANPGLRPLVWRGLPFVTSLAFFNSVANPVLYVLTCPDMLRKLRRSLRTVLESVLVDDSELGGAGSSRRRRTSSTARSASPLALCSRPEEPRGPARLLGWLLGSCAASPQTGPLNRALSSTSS

In assay [2] the target is T1, hCRTH2 receptor. Nature of the assay: hCRTH2 receptor membranes radioligand (3H-PGD2) displacement assay. The note with it: 3H-PGD2 2.5 nM, HEK293-hCRTH2 membrane fragments, Binding-Buffer with 0.1% BSA. How it is done:
as §1
as §2, with “For non-specific binding, PGD2 was added to the reaction mixture to 10 mM final concentration. This assay mix was incubated for 90 minutes at room temperature and then filtered through a GF/C filter 96-well plate which was pre-soaked for 3 hours in 0.5% polyethyleneimine (PEI). The filter-wells were washed three times with ice cold Binding-Buffer.” left out

The record followed here is US9096595B2, “7-(heteroaryl-amino)-6,7,8,9-tetrahydropyrido[1,2-a]indol acetic acid derivatives and their use as prostaglandin D2 receptor modulators” (Actelion Pharmaceuticals Ltd, priority 2011, dated 2015).

Consider `CN(c1ncc(F)cn1)C1CCc2c(CC(=O)O)c3ccc(Cl)cc3n2C1` (centres unmarked) [Example 30, 2-(3-chloro-7-((5-fluoropyrimidin-2-yl)(methyl)amino)-6,7,8,9-tetrahydropyrido[1,2-a]indol-10-yl)acetic acid], for which the IC50 stood at 9 nM at hCRTH2 receptor [1] and 10 nM on hCRTH2 receptor [2]. The corresponding values for `CN(c1ncc(F)cn1)[C@H]1CCc2c(CC(=O)O)c3ccc(Cl)cc3n2C1` [Example 32, (S)-2-(3-chloro-7-((5-fluoropyrimidin-2-yl)(methyl)amino)-6,7,8,9-tetrahydropyrido[1,2-a]indol-10-yl)acetic acid] are 2 nM and 0.8 nM.

With `CN(c1ncc(F)cn1)[C@@H]1CCc2c(CC(=O)O)c3ccc(Cl)cc3n2C1` [Example 33, (R)-2-(3-chloro-7-((5-fluoropyrimidin-2-yl)(methyl)amino)-6,7,8,9-tetrahydropyrido[1,2-a]indol-10-yl)acetic acid], the IC50 on hCRTH2 receptor [1] came to 57 nM.

As a reminder, the IC50 is the point on the concentration scale where inhibition reaches its midpoint.
